Source: publication PMC5799093, “Proceedings of Réanimation 2018, the French Intensive Care Society International Congress” (Annals of Intensive Care, 2018)

Experiment: Post hoc analysis of EPO-ACR-02 trial: kidney injury after OHCA (P-157)

erythropoietin
patients with AKI (KDIGO) at the 48th hour (5 i.v. injections of 40,000 units 12 h apart, control 54.4%, p = 0.74): 52.8% | patients with glomerular filtration rate lower than 75 mL min 1.73 m^2 at day-28 (control 14.8%, p = 0.25): 28% | hematopoietic effects or serious adverse events versus control (in vivo): no significant difference | proportion of patients with AKI through ICU discharge versus control (in vivo): no significant difference
